In this experiment the target is ERα receptor in MCF-7 cells (Homo sapiens (Human), UniProt P03372). Briefly: MCF-7 ER down-regulation assay (immuno-fluorescence). The format is cell-based. To be noted: shown in parentheses where not >90%. As to the method:
The Echo uses acoustic technology to perform direct microplate-to-microplate transfers of DMSO compound solutions to assay plates. The system can be programmed to transfer volumes as low as 2.5 nL in multiple increments between microplates and in so doing generates a serial dilution of compound in the assay plate which is then back-filled to normalise the DMSO concentration across the dilution range. […] Cells were fixed at room temperature for 20 mins before being washed two times with 250 μL PBS/Proclin (PBS with a Biocide preservative) using a BioTek platewasher, 40 μL of PBS/Proclin was then added to all wells and the plates stored at 4° C. […] The PBS/Proclin was aspirated from all wells and the cells permeabilised with 40 μL PBS containing 0.5% Tween™ 20 (v/v) for 1 hour at room temperature. The plates were washed three times in 250 μL of PBS/0.05% (v/v) Tween 20 with Proclin (PBST with a Biocide preservative) and then 20 μL of ERα (SP1) Rabbit monoclonal antibody (Thermofisher) 1:1000 in PBS/Tween™/3% (w/v) Bovine Serum Albumin was added. The plates were incubated overnight at 4° C. (Liconic carousel incubator) and then washed three times in 250 μL of PBS/0.05% (v/v) Tween™ 20 with Proclin (PBST). […] 20 μL of PBS was added to each well and the plates covered with a black plate seal and stored at 4° C. before being read. […]

Protein sequences, listed by entry. Tags and fused reporters are not part of them.
UniProt P03372, whole entry: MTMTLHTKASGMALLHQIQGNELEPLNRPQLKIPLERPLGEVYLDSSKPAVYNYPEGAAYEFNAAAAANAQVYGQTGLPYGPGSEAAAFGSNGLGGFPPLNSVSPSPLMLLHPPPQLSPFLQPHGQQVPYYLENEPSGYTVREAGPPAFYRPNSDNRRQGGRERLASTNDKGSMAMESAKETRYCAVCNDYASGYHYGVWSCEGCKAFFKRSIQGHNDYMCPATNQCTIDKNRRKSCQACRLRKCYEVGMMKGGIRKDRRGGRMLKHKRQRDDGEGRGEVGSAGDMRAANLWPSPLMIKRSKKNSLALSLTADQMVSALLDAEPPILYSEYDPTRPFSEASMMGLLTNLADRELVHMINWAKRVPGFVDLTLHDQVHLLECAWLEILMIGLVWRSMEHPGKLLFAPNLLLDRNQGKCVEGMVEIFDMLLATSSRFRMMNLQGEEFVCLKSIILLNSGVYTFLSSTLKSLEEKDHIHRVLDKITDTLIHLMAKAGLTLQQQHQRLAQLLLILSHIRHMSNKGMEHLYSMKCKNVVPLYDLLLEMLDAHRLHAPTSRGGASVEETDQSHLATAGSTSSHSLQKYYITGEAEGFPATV

Consider `COC[C@](C)(F)CN1[C@H](c2ccc(OC3CN(CCCF)C3)cc2OC)c2ccc3[nH]ncc3c2C[C@H]1C` (single isomer, unassigned) [Example 12], for which the “% downregulation” value was 83%.

For the origin of these results see patent publication US10590130B2, “Chemical compounds” (AstraZeneca AB, priority 2016, dated 2020).
